Earlier results, collected in patent publication US20210137911A1, “NOVEL CHRONOTHERAPY BASED ON CIRCADIAN RHYTHMS” (THE TRUSTEES OF THE UNIVERSITY OF PENNSYLVANIA, priority 2014, published 2021).
Like-named read-outs stand apart in the source and are kept apart here. Some compounds may have been tested in ways that are not shown here.

Row | Compound | ½ Life (half-life of top selling therapeutic compounds (Table 1)) [h] | ½ Life (in vivo) [h]
1 | CCC(=O)N(c1ccccc1)C1(COC)CCN(CCn2nnn(CC)c2=O)CC1 | 1.5 | –
2 | CCC(=O)N(c1ccccc1)C1(C(=O)OC)CCN(CCC(=O)OC)CC1 | – | 0.016
3 | CCC(=O)N(c1ccccc1)C1(COC)CCN(CCc2cccs2)CC1 | – | 4.416
